{"source": "paper PMC6410080", "about": "(Viruses, 2019)", "key": {"HeLa Kyoto cells": {"test_system": "HeLa Kyoto cells", "details": "Table S3, MTT"}, "[1]": {"test_system": "DID-labelled SFV hemifusion/fusion", "assay": "microbe, parasite or virus in culture", "type": "cell-based", "details": "Semliki Forest virus, HeLa Kyoto, 40 min, read-out: Inhibition of DID-SFV de-quenching (hemifusion/fusion)"}, "[2]": {"test_system": "clathrin-mediated uptake of transferrin"}}, "note": "Structures can show the parent of a compound that is named as a salt.", "data": [{"smiles": "CCCCc1oc2ccccc2c1C(=O)c1cc(I)c(OCCN(CC)CC)c(I)c1", "note": "[Amiodarone, Amiodarone hydrochloride]", "values": [{"measurement": "TC50 SFV (7h)", "setting": "HeLa Kyoto cells", "value": 96.8, "unit": "mM"}]}, {"smiles": "O=C1c2c(O)ccc(O)c2C(=O)c2c(NCCNCCO)ccc(NCCNCCO)c21", "note": "[Mitoxantrone, Mitoxantrone dihydrochloride]", "values": [{"measurement": "inhibition at 10 µM", "setting": "[1]", "value": "> 50", "unit": "%"}]}, {"smiles": "O=C(Nc1ccc([N+](=O)[O-])cc1Cl)c1cc(Cl)ccc1O", "note": "[Niclosamide]", "values": [{"measurement": "Transferrin internalisation compared to DMSO controls", "setting": "[2]", "value": "inhibit both virus and transferrin internalisation"}]}, {"smiles": "CC(C)(C)c1cc(C=C(C#N)C#N)cc(C(C)(C)C)c1O", "note": "[Tyrphostin A9]", "values": [{"measurement": "TC50 SFV (7h)", "setting": "HeLa Kyoto cells", "value": ">50", "unit": "mM"}]}]}
